Measurements: US20150218173A1, “SUBSTITUTED INDAZOL-PYRROLOPYRIMIDINES USEFUL IN THE TREATMENT OF HYPERFOLIFERATIVE DISORDERS” (BAYER PHARMA AKTIENGESELLSCHAFT, priority 2012, published 2015)

The chains behind the UniProt entries cited, without tags or fusion partners. Residues count along the entry.
UniProt Q9BUB5, 1-424 isoform 2 T344D: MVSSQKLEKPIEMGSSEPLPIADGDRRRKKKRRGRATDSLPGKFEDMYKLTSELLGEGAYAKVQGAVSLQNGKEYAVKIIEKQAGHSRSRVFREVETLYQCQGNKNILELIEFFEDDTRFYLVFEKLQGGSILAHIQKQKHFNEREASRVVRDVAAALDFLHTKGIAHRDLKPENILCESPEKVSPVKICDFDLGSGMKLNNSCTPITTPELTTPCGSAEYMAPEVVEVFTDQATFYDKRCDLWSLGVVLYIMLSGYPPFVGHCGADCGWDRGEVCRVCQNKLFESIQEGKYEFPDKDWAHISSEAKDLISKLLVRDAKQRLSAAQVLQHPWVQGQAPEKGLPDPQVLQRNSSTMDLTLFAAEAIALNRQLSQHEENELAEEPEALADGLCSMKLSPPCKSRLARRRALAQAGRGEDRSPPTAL

Biological target: human full-length MKNK1 (Homo sapiens, UniProt Q9BUB5, T385D)
Test: MKNK1 kinase high ATP assay (TR-FRET)
Conditions: read-out: MKNK1 IC50, high ATP (2 mM final), 15 min preincubation with enzyme
Experimental: MKNK1-inhibitory activity at high ATP of compounds of the present invention after their preincubation with MKNK1 was quantified employing the TR-FRET-based MKNK1 high ATP assay as described in the following paragraphs.
A recombinant fusion protein of Glutathione-S-Transferase (GST, N-terminally) and human full-length MKNK1 (amino acids 1-424 and T344D of accession number BAA 19885.1), expressed in insect cells using baculovirus expression system and purified via glutathione sepharose affinity chromatography, was purchased from Carna Biosciences (product no 02-145) and used as enzyme. As substrate for the kinase reaction the biotinylated peptide biotin-Ahx-IKKRKLTRRKSLKG (C-terminus in amide form) was used, which can be purchased e.g. from the company Biosyntan (Berlin-Buch, Germany). […]
The resulting mixture was incubated for 1 h at 22° C. to allow the formation of complex between the phosphorylated biotinylated peptide and the detection reagents. Subsequently the amount of phosphorylated substrate was evaluated by measurement of the resonance energy transfer from the Eu-chelate to the streptavidine-XL. Therefore, the fluorescence emissions at 620 nm and 665 nm after excitation at 350 nm were measured in a TR-FRET reader, e.g. a Rubystar (BMG Labtechnologies, Offenburg, Germany) or a Viewlux (Perkin-Elmer). […]

In the case of `CN(C)C(=O)c1cc2c(Nc3ccc4[nH]ncc4c3)ncnc2[nH]1`, the IC50 is reported as 11 nM.
`Brc1cc2c(Nc3ccc4[nH]ncc4c3)ncnc2[nH]1` gave an IC50 of 77 nM.
